Literature values in patent US12377034B2, “Method for dyeing keratinous material, comprising the use of an organosilicon compound, an effect pigment and a film-forming polymer II” (Henkel AG & Co. KGaA, priority 2019, dated 2025).

Conditions: 25° C.

## 3,4,5,6-tetrachloro-2-(1,4,5,8-tetrabromo-6-hydroxy-3-oxoxanthen-9-yl)benzoic acid [Acid Red 92]
  solubility in water: greater than 10 g/L
